PubChem BioAssay AID504847 (National Center for Advancing Translational Sciences (NCATS), 2011)
This is a selection; strong and weak results do not stand in their true shares. Records with an inconclusive call do not appear. The source made the active and inactive calls. The call rests on the fitted dose curve; in most records, active means well fitted inhibition curve with a large enough effect; inconclusive means small, poorly fitted or top-dose-only effect, or another doubt; inactive means no such curve, though single readings can be large or run the other way.
Potency means the concentration at half of the fitted maximal effect.

The chains behind the UniProt entries cited, without tags or fusion partners. Where a name states a change or a piece, a line headed by the entry shows the natural chain unless it says otherwise.
UniProt P11473: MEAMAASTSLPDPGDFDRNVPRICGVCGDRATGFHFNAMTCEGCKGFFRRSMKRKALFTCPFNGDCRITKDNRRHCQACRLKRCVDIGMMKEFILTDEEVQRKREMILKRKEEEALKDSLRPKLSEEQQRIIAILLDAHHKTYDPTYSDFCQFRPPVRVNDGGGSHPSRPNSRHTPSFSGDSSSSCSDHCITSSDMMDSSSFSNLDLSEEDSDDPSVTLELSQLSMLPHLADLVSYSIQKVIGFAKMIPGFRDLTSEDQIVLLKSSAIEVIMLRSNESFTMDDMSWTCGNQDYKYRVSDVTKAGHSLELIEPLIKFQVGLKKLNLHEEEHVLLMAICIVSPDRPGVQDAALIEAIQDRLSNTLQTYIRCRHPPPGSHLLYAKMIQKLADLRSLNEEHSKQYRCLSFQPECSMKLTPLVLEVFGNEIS

Each compound was assayed against Vitamin D3 receptor (Homo sapiens) (UniProt P11473) (assay: Inhibitors of the vitamin D receptor (VDR): qHTS). Conditions: VDR-SRC2-3 peptide fluorescence polarization, 2 h.
`O=[N+]([O-])CC(O)c1ccc([N+](=O)[O-])cc1` (configuration not stated) was tested, and the Potency was active: 50.1 µM.
`O=P(Nc1nccs1)(c1ccccc1)c1nc2ccccc2s1` (configuration not stated) was tested, and the Potency was active: 44.7 µM.
`CS(=O)(=O)c1cc([N+](=O)[O-])c2no[n+]([O-])c2c1` was tested, and the Potency was active: 25.1 µM.
With `Cc1cc(SC(NC=O)C(Cl)(Cl)Cl)ncn1` (configuration not stated) the Potency was active: 70.8 µM.
`O=P(/N=c1/nc(-c2ccccc2)n(-c2ccccc2)s1)(Nc1ccccc1)Nc1ccccc1` was tested, and the Potency was active: 20 µM.
For `O=C(O)c1ccccc1[As](=O)(O)O`, the Potency was active: 44.7 µM.
For `Cc1cc(SC(NC(=O)c2ccc(F)cc2)C(Cl)(Cl)Cl)ncn1` (configuration not stated), the Potency was active: 22.4 µM.
